Reference: PubChem BioAssay (NCATS)
Only a part is listed here, and it is no random draw. Results filed as inconclusive are left out. Active and inactive are the calls of the source. The call rests on the fitted dose curve; in most records, active means well fitted curve in the direction sought with a large enough effect; inconclusive means small, poorly fitted or top-dose-only effect, or another doubt; inactive means no such curve, though single readings can be large; an effect the other way counts as inactive or inconclusive.

Legend:
[1] = Quantitative highthroughput screen to assess conditional lethalithy of NOMO1 cells grown in RPMI1640 with untreated serum (RPMI+s) (AID 1963876); details: NOMO1 AML cells in RPMI+serum, CellTiter-Glo viability, 48 h; at 23.2 µM (top of the series);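 further: 100% = DMSO wells and 0% = empty wells without cells; nearly all actives have a fitted effect of over 35% in size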
From the text: (§1) Assay Provider: Jason Cantor Ph.D.
(§2) Department of Biochemistry
(§3) University of Wisconsin-Madison, Madison, WI, USA
(§4) Chemical screening studies have identified drug sensitivities across hundreds of cancer cell lines but most putative therapeutics fail to translate. Discovery and development of drug candidates in models that more accurately reflect nutrient levels in human blood is a major challenge. Here we performed high-throughput screens in conventional versus Human Plasma-Like Medium (HPLM) to identify compounds that were "missed" when screening using the artificial culture condition. Sets of conditional anticancer compounds spanned phases of clinical development and included non-oncology drugs were assessed. […] We also traced conditional phenotypes for several chemotherapeutics to availability of HPLM-specific metabolites and confirmed others for compounds whose reported targets are encoded by nonessential genes. Our findings establish generalizable strategies for exploiting conditional lethality in HPLM to reveal therapeutic candidates and mechanisms of action in cancer cells. […]
(§5) 6; Detection; Luminescence, Viewlux PerkinElmer. […]
(§6) 6. The luminescence signal was measured using a ViewLux (PerkinElmer) multiplate reader with a 2 second exposure time per plate. […]

[2] = Quantitative highthroughput screen to assess conditional lethalithy of NOMO1 cells grown in RPMI1640 with dialyzed fetal bovine serum (RPMI+ds) (AID 1963877); details: NOMO1 in RPMI+dialyzed FBS viability, ATP luminescence, 48 h; at 23.2 µM (top of the series);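 further: 100% = DMSO control wells and 0% = empty wells; nearly all actives have a fitted effect of over 30% in size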
From the text: as §1, §2, §3, §4, §5, §6

[3] = Quantitative highthroughput screen to assess conditional lethalithy of NOMO1 cells grown in Human Plasma-Like Medium with dialyzed fetal bovine serum (HPLM+ds) (AID 1963878); details: NOMO1 AML cells in HPLM+ds, CellTiter-Glo viability, 48 h; at 23.2 µM (top of the series);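 further: 100% = DMSO wells and 0% = empty wells on each plate; nearly all actives have a fitted effect of over 35% in size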
From the text: as §1, §2, §3, §4, §5, §6

[4] = Quantitative highthroughput screen to assess conditional lethalithy of P12 Ichikawa cells grown in Human Plasma-Like Medium with dialyzed fetal bovine serum (HPLM+ds) (AID 1963879); details: ATP luminescence, 48 h; at 23.2 µM (top of the series); further: nearly all actives have a fitted effect of over 35% in size
From the text: as §1, §2, §3, §4, §5, §6

[5] = Quantitative highthroughput screen to assess conditional lethalithy of P12 Ichikawa cells grown in RPMI1640 with dialyzed fetal bovine serum (RPMI+ds) (AID 1963880); details: ATP luminescence, 48 h; at 23.2 µM (top of the series);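 further: 100% = DMSO wells and 0% = empty wells on each plate; nearly all actives have a fitted effect of over 35% in size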
From the text: as §1, §2, §3, §4, §5, §6

[6] = Quantitative highthroughput screen to assess conditional lethalithy of P12 Ichikawa cells grown in RPMI1640 with untreated serum (RPMI+s) (AID 1963881); details: ATP luminescence, 48 h; at 23.2 µM (top of the series)
From the text: as §1, §2, §3, §4, §5, §6

[7] = Quantitative highthroughput screen to assess conditional lethalithy of SEM cells grown in Human Plasma-Like Medium with dialyzed fetal bovine serum (HPLM+ds) (AID 1963882); details: SEM B-ALL cells in HPLM+ds, CellTiter-Glo viability, 48 h; at 23.2 µM (top of the series); further: nearly all actives have a fitted effect of over 35% in size
From the text: as §1, §2, §3, §4, §5, §6

[8] = Quantitative highthroughput screen to assess conditional lethalithy of SEM cells grown in RPMI1640 with unreated serum (RPMI+s) (AID 1963883); details: SEM B-ALL cells, CellTiter-Glo viability, 48 h; at 23.2 µM (top of the series)
From the text: as §1, §2, §3, §4, §5, §6

[9] = Quantitative highthroughput screen to assess conditional lethalithy of SEM cells grown in RPMI1640 with dialyzed fetal bovine serum (RPMI+ds) (AID 1963884); details: SEM B-ALL cells, RPMI+dialyzed FBS, CellTiter-Glo viability, 48 h; at 23.2 µM (top of the series)
From the text: as §1, §2, §3, §4, §5, §6

Measured: viability

CC1=C2[N-][C@@](C)([C@@H]3N=C(C(C)=C4N=C(C=C5N=C1[C@@](C)(CC(N)=O)[C@H]5CCC(N)=O)C(C)(C)[C@H]4CCC(N)=O)[C@](C)(CCC(=O)NC[C@@H](C)OP(=O)([O-])O[C@H]1[C@@H](O)[C@@H](n4cnc5cc(C)c(C)cc54)O[C@H]1CO)[C@H]3CC(N)=O)[C@@](C)(CC(N)=O)[C@@H]2CCC(N)=O.[C-]#N.[Co+3]
inactive: [1] 76.9% | [2] 88.5% | [3] 87.2% | [4] 87.4% | [5] 93.1% | [6] 86.5% | [7] 90.9% | [8] 87.8% | [9] 84.5%
